pEC50: −log10 of the molar value.

Sequences of proteins named here, by UniProt entry; tags and fusion partners are left off.
UniProt O14842, whole entry: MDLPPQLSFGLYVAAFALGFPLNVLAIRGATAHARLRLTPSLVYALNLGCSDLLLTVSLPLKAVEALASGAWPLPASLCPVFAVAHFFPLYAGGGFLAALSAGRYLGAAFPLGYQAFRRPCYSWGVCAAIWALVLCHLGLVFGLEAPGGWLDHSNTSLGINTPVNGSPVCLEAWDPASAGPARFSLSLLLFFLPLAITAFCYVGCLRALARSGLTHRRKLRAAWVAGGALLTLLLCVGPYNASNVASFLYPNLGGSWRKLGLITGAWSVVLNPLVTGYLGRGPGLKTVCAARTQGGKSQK

The results in this text go back to patent publication US8288404B2, “Pyrrolidine GPR40 modulators” (Bristol-Myers Squibb Company, priority 2009, dated 2012).

The assay addresses hGPR40 (Homo sapiens, UniProt O14842). Nature of the assay: FDSS-Based Intracellular Calcium Assay (Human GRP40 In Vitro assay). The following applies: read-out: hGPR40 EC50; cell lines expressing GPR40, intracellular Ca2+ response, FDSS reader. The method, then:
FDSS-Based Intracellular Calcium Assay
Cell lines expressing GPR40 are generated using the pDEST 3xflag gene expression system and are cultured in culture medium comprising the following components: F12 (Gibco #11765), 10% lipid deprived fetal bovine serum, 250 ug/ml zeocin and 500 ug/ml G418. To conduct the fluorescent imaging plate reader (FLIPR)-based calcium flux assay to measure intracellular Ca^2+ response, cells expressing GPR40 are plated on 384 well plates (BD Biocoat #356697) at a density of 20,000 cells/20 ul medium per well in phenol red and serum-free DMEM (Gibco #21063-029) and incubated overnight. Using BD kit #s 80500-310 or -301, the cells are incubated with 20 ul per well of Hank's buffered salt solution with 1.7 mM probenecid and Fluo-3 at 37° C. for 30 minutes. Compounds are dissolved in DMSO and diluted to desired concentrations with assay buffer and added to the cells as 3× solution (20 ul per well). Run fluorescence/luminescence reader FDSS (Hamamatsu) to read intracellular Ca^2+ response.
Examples 1 to 109 disclosed below were tested in the Human GRP40 In Vitro assay described immediately above and found having hGRP40 modulating activity. Table 1 below lists hGPR40 EC50 values measured for the following examples.
A general note: Calcium assays in cells follow changes in intracellular calcium, usually with a dye or a luminescent sensor.

Regarding `O=C(O)C[C@@H]1CCCN1c1ccc(OCc2ccccc2OC(F)(F)F)cc1`, the negative logarithm of the EC50 (pEC50) – broadly, the negative decadic logarithm of the EC50, by convention in mol/L – was 7.20.

With `O=C(O)C[C@@H]1CCCN1c1ccc(OCc2ccccc2-c2ccccc2)cc1`, the negative logarithm of the EC50 (pEC50) is 6.52.
